{"sequences": {"note": "Sequences of proteins named here, by UniProt entry; tags and fusion partners are left off.", "UniProt Q92830, whole entry": "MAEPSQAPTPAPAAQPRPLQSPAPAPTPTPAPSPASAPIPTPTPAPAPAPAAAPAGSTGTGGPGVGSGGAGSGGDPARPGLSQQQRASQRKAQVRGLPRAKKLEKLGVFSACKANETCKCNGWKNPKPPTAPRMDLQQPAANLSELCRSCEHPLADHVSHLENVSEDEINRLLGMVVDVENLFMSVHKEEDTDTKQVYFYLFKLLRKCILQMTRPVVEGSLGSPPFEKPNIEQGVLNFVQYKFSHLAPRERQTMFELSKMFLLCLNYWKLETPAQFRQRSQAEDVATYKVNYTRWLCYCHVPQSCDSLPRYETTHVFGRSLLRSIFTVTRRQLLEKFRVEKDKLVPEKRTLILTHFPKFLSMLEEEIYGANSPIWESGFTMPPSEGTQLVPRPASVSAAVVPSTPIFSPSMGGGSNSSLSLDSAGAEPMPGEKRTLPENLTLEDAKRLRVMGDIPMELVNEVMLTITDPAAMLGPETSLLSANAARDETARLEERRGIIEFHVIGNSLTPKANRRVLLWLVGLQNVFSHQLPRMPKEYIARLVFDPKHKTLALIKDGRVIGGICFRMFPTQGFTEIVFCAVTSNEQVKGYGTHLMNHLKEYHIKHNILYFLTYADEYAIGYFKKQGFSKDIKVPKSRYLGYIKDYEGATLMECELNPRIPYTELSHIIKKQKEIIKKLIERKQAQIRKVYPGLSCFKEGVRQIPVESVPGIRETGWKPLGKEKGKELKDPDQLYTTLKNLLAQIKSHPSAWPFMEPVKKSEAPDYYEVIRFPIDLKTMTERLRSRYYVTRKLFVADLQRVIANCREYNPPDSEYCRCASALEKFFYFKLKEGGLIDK"}, "source": "PubChem BioAssay AID504327", "about": "(National Center for Advancing Translational Sciences (NCATS), 2011)", "note": "Only a part is listed here, and it is no random draw. Records with an inconclusive call do not appear. Some salts and complexes are drawn in separate pieces, as the source files them; their charges need not balance. Calls of active or inactive are those of the source. The call rests on the fitted dose curve; in most records, active means well fitted inhibition curve with a large enough effect; inconclusive means small, poorly fitted or top-dose-only effect, or another doubt; inactive means no such curve, though single readings can be large or run the other way. On the % scale 0 is the no-effect control and ±100 the full control effect.", "data": [{"target": "Histone acetyltransferase KAT2A (Homo sapiens) (UniProt Q92830)", "test": "qHTS Assay for Inhibitors of GCN5L2", "conditions": "GCN5L2 HAT assay, ThioGlo1 CoA-SH fluorescence; at 58.9 µM (top of the series)", "values": [{"compound": "COc1cc(C(=O)NCC2(N3CCOCC3)CCCCC2)cc(OC)c1C", "activity change, negative = inhibition": "inactive: -4.83%"}, {"compound": "O=C(NCC1(N2CCOCC2)CCCCC1)c1cc(Br)ccc1Cl", "activity change, negative = inhibition": "inactive: -1.74%"}, {"compound": "COc1ccc(C(=O)NCC2(N3CCOCC3)CCCCC2)cc1OC", "activity change, negative = inhibition": "inactive: -15%"}, {"compound": "N/C(=N\\O)c1c(N)no[n+]1[O-]", "activity change, negative = inhibition": "inactive: 1.59%"}, {"compound": "O=C(O)c1cccc(Nc2c([N+](=O)[O-])cc([N+](=O)[O-])cc2[N+](=O)[O-])c1", "activity change, negative = inhibition": "inactive: -25.6%"}, {"compound": "CCc1cc(C(=O)NCC2(N3CCCCC3)CCCCC2)sc1C", "activity change, negative = inhibition": "inactive: -4.83%"}, {"compound": "O=C(OC1CN2CCC1CC2)C1c2ccccc2C=Cc2ccccc21", "note": "(centres undefined)", "activity change, negative = inhibition": "inactive: 0.681%"}, {"compound": "O=C(NCC1(N2CCOCC2)CCCCC1)c1ccccc1[N+](=O)[O-]", "activity change, negative = inhibition": "inactive: -0.0727%"}, {"compound": "N#Cc1ccc(C(=O)NCC2(N3CCCCC3)CCCCC2)cc1", "activity change, negative = inhibition": "inactive: -7.23%"}, {"compound": "O=C(NCC1(N2CCOCC2)CCCCC1)c1ccc([N+](=O)[O-])cc1", "activity change, negative = inhibition": "inactive: -4.89%"}, {"compound": "CC(C)(C)OC(=O)N1CCC(N(C(=O)c2ccccc2)c2ccc(Cl)cc2)CC1", "activity change, negative = inhibition": "inactive: -4.29%"}, {"compound": "CCOC(=O)C(CC)C1=NC(C)(C)Cc2ccccc21.O=[N+]([O-])c1cc([N+](=O)[O-])c(O)c([N+](=O)[O-])c1", "note": "(centres undefined)", "activity change, negative = inhibition": "inactive: -2.47%"}, {"compound": "CN(C)C1(CNC(=O)c2cccc(C#N)c2)CCCCC1", "activity change, negative = inhibition": "inactive: -8.02%"}, {"compound": "CCCN1CCC(Nc2cc(OC)cc(OC)c2)CC1", "activity change, negative = inhibition": "inactive: 3.32%"}, {"compound": "O=C(NCC1(N2CCOCC2)CCCCC1)c1ccccc1", "activity change, negative = inhibition": "inactive: -15.4%"}, {"compound": "c1ccc(CN2CCC(Nc3ccccc3)CC2)cc1", "activity change, negative = inhibition": "inactive: -5.7%"}, {"compound": "CN(C)C1(CNC(=O)c2ccc(C(C)(C)C)cc2)CCCCC1", "activity change, negative = inhibition": "inactive: -2.22%"}, {"compound": "COc1cc(OC)cc(C(=O)NCC2(N3CCCCC3)CCCCC2)c1", "activity change, negative = inhibition": "inactive: -8.13%"}, {"compound": "Fc1ccccc1NC1CCN(Cc2ccccc2)CC1", "activity change, negative = inhibition": "inactive: -3.66%"}, {"compound": "Cc1ccc(C(=O)NCC2(N3CCCCC3)CCCCC2)o1", "activity change, negative = inhibition": "inactive: -3.49%"}, {"compound": "CCN1CCC(Nc2cccc(F)c2)CC1", "activity change, negative = inhibition": "inactive: 1.81%"}, {"compound": "CN(C)c1ccc(C(=O)NCC2(N3CCCCC3)CCCCC2)cc1", "activity change, negative = inhibition": "inactive: 12.8%"}, {"compound": "O=C(NCC1(N2CCCCC2)CCCCC1)c1ccco1", "activity change, negative = inhibition": "inactive: -2.81%"}, {"compound": "CC(C)(C)c1ccc(C(=O)NCC2(N3CCOCC3)CCCCC2)cc1", "activity change, negative = inhibition": "inactive: -12.7%"}, {"compound": "CN1CCC(Nc2ccc(F)c(Cl)c2)CC1", "activity change, negative = inhibition": "inactive: -4.22%"}, {"compound": "CCOc1ncccc1C(=O)NCC1(N2CCOCC2)CCCCC1", "activity change, negative = inhibition": "inactive: -3.78%"}, {"compound": "O=C(O)C1(Nc2ccccc2)CCN(Cc2ccccc2)CC1", "activity change, negative = inhibition": "inactive: -3.99%"}, {"compound": "CC(C)(C)OC(=O)N1CCC(Nc2ccccc2)CC1", "activity change, negative = inhibition": "inactive: 0.499%"}, {"compound": "CCCOc1ccc(C(=O)NCC2(N(C)C)CCCCC2)cc1", "activity change, negative = inhibition": "inactive: 3.45%"}, {"compound": "COc1cccc(C(=O)N(c2cc(C)cc(C)c2)C2CCN(C(=O)OC(C)(C)C)CC2)c1", "activity change, negative = inhibition": "inactive: -2.92%"}, {"compound": "COc1cc(C(=O)NCC2(N3CCOCC3)CCCCC2)cc(OC)c1OC", "activity change, negative = inhibition": "inactive: -8.14%"}, {"compound": "COc1cc(OC)cc(C(=O)NCC2(N3CCOCC3)CCCCC2)c1", "activity change, negative = inhibition": "inactive: -5.56%"}, {"compound": "CCC(CO)(C(=O)OC1CN2CCC1CC2)c1ccccc1", "note": "(centres undefined)", "activity change, negative = inhibition": "inactive: 2.27%"}, {"compound": "CN1CCC(Nc2ccc(Cl)cc2)CC1", "activity change, negative = inhibition": "inactive: -0.219%"}, {"compound": "CCCOc1ccc(C)cc1CN(CCCl)CCCl", "activity change, negative = inhibition": "inactive: 2.52%"}, {"compound": "COc1ccc(C(=O)NCC2(N3CCCCC3)CCCCC2)c(OC)c1OC", "activity change, negative = inhibition": "inactive: -1.62%"}, {"compound": "CC(C)(C)OC(=O)N1CCC(N(C(=O)c2ccccc2)c2ccc(F)cc2)CC1", "activity change, negative = inhibition": "inactive: -2.97%"}, {"compound": "COc1ccc(C(=O)NCC2(N3CCCCC3)CCCCC2)cc1", "activity change, negative = inhibition": "inactive: -0.237%"}, {"compound": "O=C(NCC1(N2CCCCC2)CCCCC1)c1cccs1", "activity change, negative = inhibition": "inactive: -1.7%"}, {"compound": "O=C(NCC1(N2CCCCC2)CCCCC1)c1ccc(=O)[nH]c1", "activity change, negative = inhibition": "inactive: 3.7%"}, {"compound": "CSc1ccccc1C(=O)NCC1(N2CCCCC2)CCCCC1", "activity change, negative = inhibition": "inactive: 2.97%"}, {"compound": "Cc1cc(C)cc(N(C(=O)c2ccccc2)C2CCN(C(=O)OC(C)(C)C)CC2)c1", "activity change, negative = inhibition": "inactive: -10.6%"}, {"compound": "O=C(NCC1(N2CCCCC2)CCCCC1)c1ccc(Cl)nc1", "activity change, negative = inhibition": "inactive: -5.82%"}, {"compound": "O=C(NCC1(N2CCOCC2)CCCCC1)c1cc2ccccc2o1", "activity change, negative = inhibition": "inactive: -0.845%"}, {"compound": "COc1ccc(Cl)cc1C(=O)NCC1(N2CCOCC2)CCCCC1", "activity change, negative = inhibition": "inactive: -3.97%"}, {"compound": "N#CC1(Nc2ccccc2)CCN(Cc2ccccc2)CC1", "activity change, negative = inhibition": "inactive: -3.5%"}, {"compound": "O=C(NCC1(N2CCCCC2)CCCCC1)c1ccc(Cl)s1", "activity change, negative = inhibition": "inactive: 0.375%"}, {"compound": "O=C(OC1CN2CCC1CC2)C1c2ccccc2Oc2ccccc21", "note": "(centres undefined)", "activity change, negative = inhibition": "inactive: -8.7%"}, {"compound": "CCOC(=O)N1CCC(Nc2ccc(OC)cc2)CC1", "activity change, negative = inhibition": "inactive: 9.01%"}, {"compound": "O=C(NCC1(N2CCOCC2)CCCCC1)c1ccc(Cl)cc1", "activity change, negative = inhibition": "inactive: -5.96%"}, {"compound": "CCOc1ccc(C)cc1CN(CCCl)CCCl", "activity change, negative = inhibition": "inactive: 1.5%"}, {"compound": "COc1ccccc1C(=O)NCC1(N2CCOCC2)CCCCC1", "activity change, negative = inhibition": "inactive: 0.869%"}, {"compound": "CCOC(=O)N1CCC(Nc2ccc(F)cc2)CC1", "activity change, negative = inhibition": "inactive: -4.37%"}, {"compound": "COc1ccc(NC2CCN(CCc3ccccc3)CC2)c(OC)c1", "activity change, negative = inhibition": "inactive: -3.61%"}, {"compound": "CCCCOc1ccc(C(=O)NCC2(N3CCOCC3)CCCCC2)cc1", "activity change, negative = inhibition": "inactive: 1.71%"}, {"compound": "O=C(NCC1(N2CCCCC2)CCCCC1)c1ccc(F)cc1", "activity change, negative = inhibition": "inactive: -0.903%"}, {"compound": "Cc1ccc(OCC(C)C)c(CN(CCCl)CCCl)c1", "activity change, negative = inhibition": "inactive: -11.9%"}, {"compound": "CCOC(=O)N1CCC(Nc2cccc(C)c2)CC1", "activity change, negative = inhibition": "inactive: -8.78%"}, {"compound": "COc1cc(C(=O)NCC2(N(C)C)CCCCC2)ccc1OC(F)F", "activity change, negative = inhibition": "inactive: -5.55%"}, {"compound": "O=C(NCC1(N2CCCCC2)CCCCC1)c1ccc(OC(F)F)cc1", "activity change, negative = inhibition": "inactive: -5.48%"}, {"compound": "N#CC1(Nc2ccccc2)CCN(CCc2ccccc2)CC1", "activity change, negative = inhibition": "inactive: -8.82%"}, {"compound": "CCN1CCC(Nc2ccc(Cl)cc2)CC1", "activity change, negative = inhibition": "inactive: -6.1%"}, {"compound": "CSc1ccc(C(=O)NCC2(N3CCOCC3)CCCCC2)cc1", "activity change, negative = inhibition": "inactive: 1.01%"}, {"compound": "CCOc1ccc(C(=O)NCC2(N3CCOCC3)CCCCC2)cc1", "activity change, negative = inhibition": "inactive: -16.5%"}, {"compound": "O=C(NCC1(N2CCCCC2)CCCCC1)c1cccc([N+](=O)[O-])c1", "activity change, negative = inhibition": "inactive: -3.28%"}, {"compound": "O=[N+]([O-])c1cc([N+](=O)[O-])c(NCC2CCS(=O)(=O)C2)c([N+](=O)[O-])c1", "note": "(centres undefined)", "activity change, negative = inhibition": "inactive: -5.87%"}, {"compound": "O=C(NCC1(N2CCCCC2)CCCCC1)c1cccc(C(F)(F)F)c1", "activity change, negative = inhibition": "inactive: -2.02%"}, {"compound": "O=C(NCC1(N2CCOCC2)CCCCC1)c1cc(=O)[nH]c2ccccc12", "activity change, negative = inhibition": "inactive: 0%"}, {"compound": "COc1cc(C(=O)NCC2(N3CCCCC3)CCCCC2)ccc1OC(F)F", "activity change, negative = inhibition": "inactive: 1.16%"}, {"compound": "COc1ccc(NC2CCN(C(=O)OC(C)(C)C)CC2)cc1", "activity change, negative = inhibition": "inactive: -4.47%"}, {"compound": "CC(C)c1ccc(C(=O)NCC2(N3CCOCC3)CCCCC2)cc1", "activity change, negative = inhibition": "inactive: -5.51%"}, {"compound": "CN1CCN(CCOC(=O)C(O)(c2ccccc2)c2ccccc2)CC1", "activity change, negative = inhibition": "inactive: -0.584%"}, {"compound": "CC(C)c1ccc(NC2CCN(C(=O)OC(C)(C)C)CC2)cc1", "activity change, negative = inhibition": "inactive: -18.6%"}, {"compound": "CN(C)c1cccc(C(=O)NCC2(N3CCCCC3)CCCCC2)c1", "activity change, negative = inhibition": "inactive: -8.44%"}, {"compound": "O=[N+]([O-])c1cc([N+](=O)[O-])c(OC2CCCCC2O)c([N+](=O)[O-])c1", "note": "(centres undefined)", "activity change, negative = inhibition": "inactive: -17.3%"}, {"compound": "COc1ccc(CN(CCCl)CCCl)cc1Cl", "activity change, negative = inhibition": "inactive: -1.64%"}, {"compound": "O=C(NCC1(N2CCOCC2)CCCCC1)c1cc(F)c(F)cc1Cl", "activity change, negative = inhibition": "inactive: -0.817%"}, {"compound": "COc1cc(OC)c(C(=O)NCC2(N(C)C)CCCCC2)cc1OC", "activity change, negative = inhibition": "inactive: -20.7%"}, {"compound": "O=C(OC1CN2CCC1CC2)c1ccc([N+](=O)[O-])cc1", "note": "(centres undefined)", "activity change, negative = inhibition": "inactive: -1.23%"}, {"compound": "O=C(NCC1(N2CCCCC2)CCCCC1)c1cncc(Br)c1", "activity change, negative = inhibition": "inactive: 4.32%"}, {"compound": "COc1ccc2c(c1O)-c1c(O)c(OC)cc3c1[C@H](C2)[N+](C)(C)CC3.O=[N+]([O-])c1cc([N+](=O)[O-])c([O-])c([N+](=O)[O-])c1[O-]", "activity change, negative = inhibition": "inactive: -7.96%"}, {"compound": "O=C(NCC1(N2CCOCC2)CCCCC1)c1ccccc1Br", "activity change, negative = inhibition": "inactive: -7.36%"}, {"compound": "CCCOc1ccc(C(=O)NCC2(N(C)C)CCCCC2)cc1OC", "activity change, negative = inhibition": "inactive: 31.8%"}, {"compound": "CCCCOc1ccccc1C(=O)NCC1(N2CCOCC2)CCCCC1", "activity change, negative = inhibition": "inactive: -11.5%"}]}]}
